pEC50: −log10 of the molar value.
Experiments:
[1] = biological target: KCNQ2/3 heterotetramer channel (Homo sapiens, UniProt O43525+O43526); assay: KCNQ2/3 heterotetramer channel dose-response curve in CHO-K1 cells cotransfected with KCNQ2 and KCNQ3 plasmids; conditions: FIG. 2, Boltzmann fit
Method: The culture medium for Chinese hamster oocytes (CHO-K1) (Culture Collection of Chinese Academy of Sciences): 50/50 DMEM/F-12 (Cellgro, Manassas, Va.), added with 10% fetal bovine serum (FBS) (Gibco, Australia) and 2 mM L-glutamic acid (Invitrogen). Expression of KCNQ channels: 24 h before transfection, CHO-K1 spreaded on a dish with a diameter of 60 mm. Lipofectamine 2000™ agent (Invitrogen) was used for Transfection according to the protocol thereof. GFP (green fluorescent protein) was cotransfected to be used as a indication of successful converting into KCNQ plasmid.
Whole-cell voltage-clamp recording was performed on an Axopatch-200B amplifier (Molecular Devices, Sunnyvale, Calif.) at room temperature. The electrode was made by drawing borosilicate glass capillary (World Precision Instruments, Sarasota, Fla.). The electric resistance of the electrode filled with an intracellular fluid is 3 to 5 MΩ. The composition of the intracellular fluid (1 L) was as follows: 145 mM KCl(Sigma), 1 mM MgCl2(Sigma), 5 mM EGTA(Sigma), 10 mM HEPES(Sigma) and 5 mM MgATP(Sigma) (pH was adjusted to 7.3 with KOH). During the recording, an extracellular fluid was continuously perfused by using a BPS perfusion system (ALA Scientific Instruments, Westburg, N.Y.). […]

Sequences of proteins named here, by UniProt entry; tags and fusion partners are left off.
UniProt O43525, whole entry: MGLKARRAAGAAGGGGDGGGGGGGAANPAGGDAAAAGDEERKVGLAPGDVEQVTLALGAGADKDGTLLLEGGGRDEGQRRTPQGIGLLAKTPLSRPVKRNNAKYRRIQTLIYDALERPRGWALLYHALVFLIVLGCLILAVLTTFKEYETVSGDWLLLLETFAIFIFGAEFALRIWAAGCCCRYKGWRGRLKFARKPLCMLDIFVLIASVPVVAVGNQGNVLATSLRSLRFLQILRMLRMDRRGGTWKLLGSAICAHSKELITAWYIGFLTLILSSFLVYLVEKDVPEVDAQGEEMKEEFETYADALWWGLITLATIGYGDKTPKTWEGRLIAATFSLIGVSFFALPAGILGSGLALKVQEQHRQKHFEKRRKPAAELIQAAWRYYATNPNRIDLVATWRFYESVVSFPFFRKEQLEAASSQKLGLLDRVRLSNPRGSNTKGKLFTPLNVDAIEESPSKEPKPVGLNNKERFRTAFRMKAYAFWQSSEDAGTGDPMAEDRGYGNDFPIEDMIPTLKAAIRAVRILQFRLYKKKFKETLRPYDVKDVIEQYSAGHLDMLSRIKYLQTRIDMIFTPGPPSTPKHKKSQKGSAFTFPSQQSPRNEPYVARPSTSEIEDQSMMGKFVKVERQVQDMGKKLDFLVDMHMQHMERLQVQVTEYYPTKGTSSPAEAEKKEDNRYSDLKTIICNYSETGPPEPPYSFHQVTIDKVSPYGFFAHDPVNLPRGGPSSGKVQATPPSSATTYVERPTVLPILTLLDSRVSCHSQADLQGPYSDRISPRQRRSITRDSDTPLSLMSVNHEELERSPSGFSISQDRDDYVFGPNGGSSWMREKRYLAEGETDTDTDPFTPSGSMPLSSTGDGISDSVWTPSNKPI
UniProt O43526, whole entry: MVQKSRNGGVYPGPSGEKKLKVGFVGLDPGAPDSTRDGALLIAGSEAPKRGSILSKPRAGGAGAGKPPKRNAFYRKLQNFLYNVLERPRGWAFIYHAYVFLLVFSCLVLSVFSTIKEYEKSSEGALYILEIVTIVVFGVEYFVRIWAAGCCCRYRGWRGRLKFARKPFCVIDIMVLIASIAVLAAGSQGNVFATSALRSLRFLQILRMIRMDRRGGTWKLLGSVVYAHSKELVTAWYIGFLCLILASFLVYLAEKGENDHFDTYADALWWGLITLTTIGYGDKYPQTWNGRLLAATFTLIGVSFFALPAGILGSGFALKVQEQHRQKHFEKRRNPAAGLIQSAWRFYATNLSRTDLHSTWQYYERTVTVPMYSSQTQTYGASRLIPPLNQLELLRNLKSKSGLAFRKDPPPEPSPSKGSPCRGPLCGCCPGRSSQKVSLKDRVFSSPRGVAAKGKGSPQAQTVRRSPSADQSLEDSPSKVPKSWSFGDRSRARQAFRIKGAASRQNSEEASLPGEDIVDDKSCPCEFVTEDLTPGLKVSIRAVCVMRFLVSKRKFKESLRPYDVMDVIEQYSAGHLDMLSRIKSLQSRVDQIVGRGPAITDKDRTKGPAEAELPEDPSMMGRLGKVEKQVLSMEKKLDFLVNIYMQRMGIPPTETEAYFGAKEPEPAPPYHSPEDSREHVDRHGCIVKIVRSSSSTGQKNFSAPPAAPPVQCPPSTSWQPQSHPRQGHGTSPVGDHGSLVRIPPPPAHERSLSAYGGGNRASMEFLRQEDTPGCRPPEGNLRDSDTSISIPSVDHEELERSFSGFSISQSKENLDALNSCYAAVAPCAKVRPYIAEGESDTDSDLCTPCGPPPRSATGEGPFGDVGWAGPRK

[2] = Safety assessment, lethal dose after single oral administration; assay type: in vivo
[3] = mice, orally administered (WO2013060097); cited from earlier work

Question: With `C#CCN(Cc1ccc(F)cc1)c1ccc(NC(=O)OCC)c(N)c1` as the molecule, how does the pEC50 [1] read?
Answer: 5.72

Question: What about the “dose at which death of rats can be observed” value [2] of the same molecule?
Answer: greater than 30 mg/kg

Question: What about the “exposure amount in brain tissue relative to plasma” value [3] of the same molecule?
Answer: 2.4 time

From patent US10316008B2, “KCNQ potassium channel agonist, and preparation method therefor and use thereof” (SHANGHAI INSTITUTE OF MATERIA MEDICA, CHINESE ACADEMY OF …, priority 2014, dated 2019)
